Experimental data taken from ChEMBL document CHEMBL1144935, “Synthesis, biological evaluation, and receptor docking simulations of 2-[(acylamino)ethyl]-1,4-benzodiazepines as kappa-opioid receptor agonists endowed with antinociceptive and antiamnesic activity” (J Med Chem, 2003).

Amino acid sequences for entries named in this document (tags omitted). A change or cut given only in a name is not applied to a line headed by its entry.
UniProt P41143, whole entry, looked up: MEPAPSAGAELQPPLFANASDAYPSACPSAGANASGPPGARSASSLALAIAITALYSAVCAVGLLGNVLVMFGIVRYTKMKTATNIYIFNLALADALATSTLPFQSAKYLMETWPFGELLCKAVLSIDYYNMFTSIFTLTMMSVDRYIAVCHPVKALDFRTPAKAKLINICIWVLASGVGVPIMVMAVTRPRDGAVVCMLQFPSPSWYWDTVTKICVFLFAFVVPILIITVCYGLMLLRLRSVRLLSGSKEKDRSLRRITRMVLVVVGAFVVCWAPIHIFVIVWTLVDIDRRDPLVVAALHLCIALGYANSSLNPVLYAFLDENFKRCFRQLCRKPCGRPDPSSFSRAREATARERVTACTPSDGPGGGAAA
UniProt P41144: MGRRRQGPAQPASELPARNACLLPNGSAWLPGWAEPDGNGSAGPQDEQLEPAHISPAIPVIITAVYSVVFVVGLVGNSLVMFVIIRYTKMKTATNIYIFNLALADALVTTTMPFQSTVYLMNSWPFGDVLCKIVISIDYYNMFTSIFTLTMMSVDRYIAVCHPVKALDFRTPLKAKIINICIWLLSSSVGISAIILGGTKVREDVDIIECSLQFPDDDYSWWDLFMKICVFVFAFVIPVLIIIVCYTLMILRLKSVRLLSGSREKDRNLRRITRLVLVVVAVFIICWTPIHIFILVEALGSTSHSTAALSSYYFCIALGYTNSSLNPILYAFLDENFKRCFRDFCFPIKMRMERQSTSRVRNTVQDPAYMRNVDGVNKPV
UniProt P35372, whole entry, looked up: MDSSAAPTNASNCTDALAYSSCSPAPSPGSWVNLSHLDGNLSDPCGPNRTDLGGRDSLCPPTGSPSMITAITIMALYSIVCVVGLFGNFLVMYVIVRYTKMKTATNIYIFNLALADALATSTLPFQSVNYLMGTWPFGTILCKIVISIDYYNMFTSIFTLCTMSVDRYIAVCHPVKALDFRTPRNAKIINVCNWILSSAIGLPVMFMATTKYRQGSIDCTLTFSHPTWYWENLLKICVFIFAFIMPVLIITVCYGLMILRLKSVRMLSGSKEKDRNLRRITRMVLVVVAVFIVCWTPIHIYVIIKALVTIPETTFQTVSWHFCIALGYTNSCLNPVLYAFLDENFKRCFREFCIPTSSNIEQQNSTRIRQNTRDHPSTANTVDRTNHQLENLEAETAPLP
UniProt P97266, whole entry, looked up: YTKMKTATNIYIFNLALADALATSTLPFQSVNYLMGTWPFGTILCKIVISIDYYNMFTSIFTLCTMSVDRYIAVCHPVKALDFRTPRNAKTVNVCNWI

What was measured:
[1] = target: Delta-type opioid receptor (Homo sapiens, UniProt P41143)
[2] = target: Kappa-type opioid receptor (Cavia porcellus, UniProt P41144)
Mu-type opioid receptor [3] = target: Mu-type opioid receptor (Homo sapiens, UniProt P35372)
Mu-type opioid receptor [4] = target: Mu-type opioid receptor (Cavia porcellus, UniProt P97266); assay: Binding affinity of compound was determined against Opioid receptor mu 1 from native receptor in guinea pig

CN1c2ccccc2C(c2ccccc2)=NC[C@H]1CCNC(=O)c1cccs1
Ki [1]: 544 nM | Ki [2]: 2.46 nM

CN1c2ccc(Cl)cc2C(c2ccccc2)=NC[C@H]1CCNC(=O)c1cccs1
Ki [1]: 750 nM | Ki [2]: 6.55 nM

CN1c2ccccc2C(c2ccccc2)=NCC1CCNC(=O)c1cccs1 (stereo not drawn)
Ki [1]: 93.9 nM

CN1c2ccccc2C(c2ccccc2)=NC[C@@H]1CCNC(=O)c1cccs1
Ki [1]: 63.2 nM | Ki [2]: 0.19 nM

CN(C(=O)Cc1ccccc1)[C@H]1CC[C@@]2(CCCO2)C[C@@H]1N1CCCC1
Ki (Mu-type opioid receptor [3]): > 1000 nM | Ki [1]: > 1000 nM | Ki [2]: 1.89 nM | Ki (Mu-type opioid receptor [4]): 1880 nM

CN1c2ccc(Cl)cc2C(c2ccccc2)=NC[C@@H]1CCNC(=O)c1cccs1
Ki [1]: 451 nM | Ki [2]: 4.52 nM
